According to ChEMBL document CHEMBL2169806, “Design, synthesis, and pharmacological evaluation of N-acylhydrazones and novel conformationally constrained compounds as selective and potent orally active phosphodiesterase-4 inhibitors” (J Med Chem, 2012):

Columns and labels:
[1] = Selectivity ratio of IC50 for PDE6 to IC50 for bovine PDE4
Bos taurus [2] = organism: Bos taurus; test: Selectivity ratio of IC50 for bovine PDE3 to IC50 for bovine PDE4
Bos taurus [3] = organism: Bos taurus; test: Selectivity ratio of IC50 for bovine PDE5 to IC50 for bovine PDE4

Structure (SMILES) | Ratio IC50 (Bos taurus [2]) | further results
COc1ccc(/C=N/N(C)C(=O)c2ccc(OC)c(OC)c2)cc1OC | – | Ratio IC50 [1]: 59
COc1ccc(/C=N/N(C)C(=O)c2ccccc2)cc1OC | 140 | –
COc1ccc(C(=O)N(C)/N=C/c2ccc(OC)c(OC)c2)cc1 | – | Ratio IC50 (Bos taurus [3]): 1.5
COc1ccc(/C=N/N(C)C(=O)c2ccc(O)cc2)cc1OC | – | Ratio IC50 [1]: 182
COc1cccc(C(=O)N(C)/N=C/c2ccc(OC)c(OC)c2)c1 | 16 | –

More lines, main results first:

Ratio IC50 (Bos taurus [2]) | Structure (SMILES) | further results
> 90 | COc1ccc(/C=N/N(C)C(=O)c2ccc3c(c2)OCO3)cc1OC | –
45 | COc1ccc(/C=N/N(C)C(=O)c2ccc(Cl)cc2)cc1OC | –
26 | COc1ccc(/C=N/N(C)C(=O)c2ccccc2OC)cc1OC | –
